Test system: T1, chondroitin 4-O-sulfotransferase (C4ST)
T1 construct: gene Chst11; recombinant
Assay: sulfotransferase kinetics, HPLC-MS
Assay type: biochemical
Excerpt: sulfotransferase kinetics, HPLC-MS on chondroitin 4-O-sulfotransferase (C4ST)

Nc1ncnc2c1ncn2[C@@H]1O[C@H](COP(=O)(O)OS(=O)(=O)O)[C@@H](O)[C@H]1O [APS]
Km: 2650 ± 520 µM
